The values that follow come from patent publication US5342604A, “Complexes possessing ortho ligating functionality” (The Dow Chemical Company, priority 1992, dated 1994).

The nature of the data set: Percent complex determination, samarium complexes (Sephadex C-25 cation exchange). The conditions noted are these: Sm. The format is physicochemical. The procedure: A disposable 10 ml plastic (Biorad) column was filled with 1 to 2 ml of water-swelled Sephadex™ C-25 cation exchange resin. The water was pressure eluted to the top of the resin. Fifteen μl of the complex (or more if counts were low) were added to the top of the resin. This was followed by 2 ml of 4:1 (V:V) isotonic saline:conc. ammonium hydroxide solution as an eluent which was allowed to drip into a counting tube. This was also pressure eluted to the top of the resin. An additional 2 ml of the eluent were added and the column pressure eluted to remove all liquid. The dried resin was then placed in a third counting tube and the three tubes counted on a NaI well counter using a Canberra multichannel analyzer linked to a computer. The percent complex was determined by dividing the number of counts in the two elutions by the total counts in the elutions plus the column, all times 100.
Samarium complexes were formed as described previously for yttrium complexes except that 0.0003M samarium was prepared by dissolution of Sm2 03 (348.7 g mole) in 0.1M hydrochloric acid. […] Percent complex determination was made in the same manner as for the yttrium complex.

“2,6-BIS{[(2-{BIS(CARBOXYMETHYL)]AMINO}ETHYL) (CARBOXYMETHYL)]AMINOMETHYL}-4-(AMINO)PHENOL, SAMARIUM COMPLEX [Example XX]” had a percent complex (after anion exchange chromatography) of 95% and a percent complex (pH 7, before purification) of 68%.
